From ChEMBL document CHEMBL2057164, “Head-to-head prenyl tranferases: anti-infective drug targets” (J Med Chem, 2012)

Biological target: T1, 4,4'-diapophytoene synthase (Staphylococcus aureus, UniProt A9JQL9)
T1 sequence (A9JQL9 whole entry): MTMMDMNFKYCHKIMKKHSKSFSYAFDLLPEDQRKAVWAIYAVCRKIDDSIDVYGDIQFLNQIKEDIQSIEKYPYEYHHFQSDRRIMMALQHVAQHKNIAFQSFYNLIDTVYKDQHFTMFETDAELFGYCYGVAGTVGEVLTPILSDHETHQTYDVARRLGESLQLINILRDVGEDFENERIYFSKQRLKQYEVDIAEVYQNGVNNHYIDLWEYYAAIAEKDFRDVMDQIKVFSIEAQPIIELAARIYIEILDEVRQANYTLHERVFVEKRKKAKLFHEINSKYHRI
Test: Inhibition of Staphylococcus aureus ATCC 27659 dehydrosqualene synthase expressed in Escherichia coli BL21(DE3) after 30 mins by spectrophotometric analysis

**Q.** For `N#CSCCOc1ccc(Oc2ccccc2)cc1`, which Ki is on record?
**A.** 1.5 µM
